# Source: article PMC11455612 (Cell, 2024)
# Target: wild-type human phosphatidylserine synthase 1 (PSS1^WT), C-terminal Flag-tag (human) (UniProt P48651)
# Test: cryo-EM structure
substance,measurement,value
"wild-type human phosphatidylserine synthase 1 (PSS1^WT), C-terminal Flag-tag (from UniProt P48651-1 1-409) (enzyme)",stoichiometry N,2
